For one assay, the system named is endothelial cells. Kind of assay: Anti-vascular score (AVS) on Fast Green/H&E slides of tumor cell cultures, averaged over paired comparisons. It is filed as cell-based, human. The conditions noted are these: ratio of vehicle-corrected AVS to antitumor score; concentrations as in Table 1. The procedure: Solid tumors are minced to pieces smaller than 1 mm (small enough to be aspirated into a standard disposable 10 ml pipette) with high quality curved surgical scissors. Medium in which said tumors may have been transported is reserved, along with the supernatant from the tissue mince. Scissor-minced tumor pieces are digested with collagenase/DNase in RPMI-1640 containing antibiotics and 10% fetal calf serum. Specimens are digested in 50 ml disposable polypropylene centrifuge tubes, assisted by gentle mixing with plastic-coated, magnetic stirring bars over a stirring plate. Specimens are thusly mixed until complete gross digestion has taken place—typically about 2-3 hours for a 1-3 gram specimen. Cytospin slides are then prepared from all cell fractions (transport medium, supernatant from tissue mince, and enzyme digestate), and stained with fast green-H&E, as described previously (Weisenthal, et al., “A Novel Dye Exclusion Method for Testing in vitro Chemosensitivity of Human Tumors,” Cancer Res. (1983) 43:749-757).
Final volume of cell suspension/drug solution (or vehicle) plated for culture can be 0.12 ml. […]
Cells are cultured with the index concentration of each drug and, if desired, with dilutions of the index concentration, where the index concentration is determined from training set assays or from the literature. […]

In the next assay the test system is breast cancer. The settings on record: breast cancer patient with daily wine consumption of 1.5 l; Eichbaum, Anticancer Drugs (2005); cited from earlier work.

Consider `CNC(=O)c1cc(Oc2ccc(NC(=O)Nc3ccc(Cl)c(C(F)(F)F)c3)cc2)ccn1` [Sorafenib, sorafenib], for which, in the assay with endothelial cells, the “(AVS − VAVS)/AT Ratio (Avg)” value came to 0.05.
In the case of trastuzumab, the remission on therapy with breast cancer was 5-year+ remission.

(Values after US8278033B2, “Efficient well being assessment and improved treatment protocol” (priority 2008, dated 2012).)
